scFv variants of Ab-14 (heavy chain) against a SARS-CoV-2 spike peptide

From the AlphaSeq antibody data of Engelhart et al. 2022 (doi:10.1038/s41597-022-01779-4), copy in the FLAb collection.

All variants were tested on one target, the spike HR2 peptide PDVDLGDISGINAS (SARS-CoV-2).

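The parent was found by panning a naive human phage display library on the peptide. Library AAYL49 holds single substitutions and randomly drawn double and triple substitutions in the CDRs. The scFvs were displayed on barcoded MATa yeast, the peptide on MATalpha yeast. Binding brings cells together so that they mate, and sequencing counts the barcode pairs among the diploids. Each replicate has its own calibration line, from reference interactions of the BCL2 family. Each pool was mated in three replicate cultures.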

Parent scFv Ab-14: VH joined to VL by a (GGGGS)3 linker. Changes lie in the heavy chain CDRs alone.
VH: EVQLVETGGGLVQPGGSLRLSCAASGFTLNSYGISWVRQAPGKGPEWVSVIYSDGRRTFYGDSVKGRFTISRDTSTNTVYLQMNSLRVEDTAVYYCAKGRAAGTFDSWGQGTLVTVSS
VL: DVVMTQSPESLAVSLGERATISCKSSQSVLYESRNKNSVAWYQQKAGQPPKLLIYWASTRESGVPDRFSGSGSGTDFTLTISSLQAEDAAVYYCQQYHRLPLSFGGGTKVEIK

Sequences are complete VH domains.
Every variant below is changed at S53 of the VH (sequential numbering).
Values are apparent Kd, the geometric mean of the replicates that gave a signal; lower means stronger binding.
"no signal" means that the variant was in the library but no mating with the target was seen in any replicate; the authors take this as a sign of poor binding, and no number exists.
Background: pairings of library AAYL49 with three empty control strains gave a value in 15% of cases (median 11 µM, 5th percentile 680 nM). Values in that range, when seen in few replicates, are hard to tell from nonspecific mating. The control count says in how many pairings with the empty strains this scFv gave a signal.

VH,apparent Kd,replicates with signal,control signals
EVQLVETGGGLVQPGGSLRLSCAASGFTLNSYGISWVRQAPGKGPEWVSVIYGDGRRTFYGDSWKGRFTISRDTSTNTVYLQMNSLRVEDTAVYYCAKGRAAPTFDSWGQGTLVTVSS,no signal,0/3,1/9
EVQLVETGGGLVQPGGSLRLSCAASGFPLNSYGISWVRQAPGKGPEWVSVIYIDGRRTFPGDSVKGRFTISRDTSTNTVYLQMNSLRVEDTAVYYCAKGRAAGTFDSWGQGTLVTVSS,31 µM,2/3,2/9
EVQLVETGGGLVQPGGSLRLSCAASGFTLNSGGISWVRQAPGKGPEWVSVEYMDGRRTFYGDSVKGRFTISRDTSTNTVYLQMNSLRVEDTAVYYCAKGRAAGTFDSWGQGTLVTVSS,55 µM,2/3,5/9
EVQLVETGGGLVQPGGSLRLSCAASGFLLNSYGISWVRQAPGKGPEWVSVIYMDGRRTFYGDSVKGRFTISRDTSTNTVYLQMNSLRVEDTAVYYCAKCRAAGTFDSWGQGTLVTVSS,23 µM,1/3,1/9
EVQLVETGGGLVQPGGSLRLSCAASGFTLNSYGISWVRQAPGKGPEWVSVIYWDGRPTFYGCSVKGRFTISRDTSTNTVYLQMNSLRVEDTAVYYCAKGRAAGTFDSWGQGTLVTVSS,no signal,0/3,0/9
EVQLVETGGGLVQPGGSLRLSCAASGFTLNSYGISWVRQAPGKGPEWVSVIYYDGRRTFYGDSVLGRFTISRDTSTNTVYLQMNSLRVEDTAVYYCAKGRAAGTFDSWGQGTLVTVSS,no signal,0/3,3/9
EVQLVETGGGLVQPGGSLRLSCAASGFTLNSYGISWVRQAPGKGPEWVSVIYEDGRRTFYGDWVKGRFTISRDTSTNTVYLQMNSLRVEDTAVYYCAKYRAAGTFDSWGQGTLVTVSS,no signal,0/3,0/9
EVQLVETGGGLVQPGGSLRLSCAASEFTLNSYGISWVRQAPGKGPEWVSSIYDDGRRTFYGDSVKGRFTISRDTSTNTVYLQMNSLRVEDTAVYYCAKGRAAGTFDSWGQGTLVTVSS,13 µM,2/3,1/9
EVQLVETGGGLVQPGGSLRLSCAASGFTLNSYGISWVRQAPGKGPEWVSVIYADGRRTFYGDSVKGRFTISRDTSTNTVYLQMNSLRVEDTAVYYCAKGRAAGTFDSWGQGTLVTVSS,880 pM,3/3,1/9
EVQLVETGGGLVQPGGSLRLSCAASGFTLNSYGISWVRQAPGKGPEWVSVIYVDGRRTFYGDSVKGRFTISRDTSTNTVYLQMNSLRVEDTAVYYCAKGRAAGFFDDWGQGTLVTVSS,no signal,0/3,0/9
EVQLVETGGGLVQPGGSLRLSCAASGFTLNSYGISWVRQAPGKGPEWVSVIYHDGRRTFYGDSVDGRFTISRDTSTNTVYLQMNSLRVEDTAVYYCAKGRAAGTFDSWGQGTLVTVSS,11 µM,3/3,1/9
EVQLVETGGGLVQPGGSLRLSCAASGFTLNSYGISWVRQAPGKGPEWVSVIYTDGRRTTYGDSVKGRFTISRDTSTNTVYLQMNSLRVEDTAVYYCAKGRAAGTFGSWGQGTLVTVSS,no signal,0/3,0/9
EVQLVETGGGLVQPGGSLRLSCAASKFTLNSYGISWVRQAPGKGPEWVSVIYQDGRRTFYGDSVKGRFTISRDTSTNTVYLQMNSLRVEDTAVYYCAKGRAAGTFDSWGQGTLVTVSS,no signal,0/3,1/9
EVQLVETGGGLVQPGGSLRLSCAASGFTLNSYGISWVRQAPGKGPEWVSVIYCEGRRTFYGDSVKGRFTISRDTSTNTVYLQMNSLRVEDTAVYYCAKGRAAGTFDSWGQGTLVTVSS,7.2 µM,1/3,0/9
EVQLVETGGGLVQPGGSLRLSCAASGFTLNSYGISWVRQAPGKGPEWVSVIYFDGRRTFYGDSVKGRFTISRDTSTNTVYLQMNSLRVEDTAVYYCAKGRAAETFDSWGQGTLVTVSS,no signal,0/3,2/9
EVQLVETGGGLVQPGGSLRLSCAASGFTVNSYGISWVRQAPGKGPEWVSVIYIDGRRTFYGDSVKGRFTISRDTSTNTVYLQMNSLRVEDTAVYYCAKGRAATTFDSWGQGTLVTVSS,no signal,0/3,0/9
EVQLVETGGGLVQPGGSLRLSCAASGFTLNGYGISWVRQAPGKGPEWVSVIYEDGRRTFYGDSVKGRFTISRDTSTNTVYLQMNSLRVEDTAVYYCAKGRAAGTFDSWGQGTLVTVSS,15 µM,1/3,1/9
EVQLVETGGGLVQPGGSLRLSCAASGFTLNSYGISWVRQAPGKGPEWVSVIYHDGRRTFYGDSVKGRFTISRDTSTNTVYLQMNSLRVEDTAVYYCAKGRAAGTFHSWGQGTLVTVSS,200 nM,3/3,0/9
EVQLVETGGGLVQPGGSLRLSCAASGFTLNVYGISWVRQAPGKGPEWVSPIYIDGRRTFYGDSVKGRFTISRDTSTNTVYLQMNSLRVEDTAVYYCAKGRAAGTFDSWGQGTLVTVSS,19 µM,2/3,4/9
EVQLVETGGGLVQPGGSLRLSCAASGFTENSYGISWVRQAPGKGPEWVSVIYPDGRRTYYGDSVKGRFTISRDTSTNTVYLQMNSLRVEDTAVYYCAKGRAAGTFDSWGQGTLVTVSS,18 µM,3/3,2/9
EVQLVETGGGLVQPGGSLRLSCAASGFTLNSYGISWVRQAPGKGPEWVSVNERDGRRTFYGDSVKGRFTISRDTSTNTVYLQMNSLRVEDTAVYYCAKGRAAGTFDSWGQGTLVTVSS,47 µM,1/3,5/9
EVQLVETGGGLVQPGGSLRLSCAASGFTLNSYTISWVRQAPGKGPEWVSVIYEDGRRTFYGDSVKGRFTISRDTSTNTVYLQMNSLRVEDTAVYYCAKGRAAGTSDSWGQGTLVTVSS,16 µM,2/3,6/9
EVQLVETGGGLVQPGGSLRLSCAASGFTLNSYGISWVRQAPGKGPEWVSVIYNDGRRTFYGDWVKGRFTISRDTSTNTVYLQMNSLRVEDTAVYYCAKGRAAGAFDSWGQGTLVTVSS,no signal,0/3,2/9
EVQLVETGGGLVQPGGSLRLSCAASGFTLNSYGISWVRQAPGKGPEWVSVIKRDGRRTFYGDSVKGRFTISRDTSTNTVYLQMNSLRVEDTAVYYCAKGRAAGTFDIWGQGTLVTVSS,71 µM,1/3,1/9
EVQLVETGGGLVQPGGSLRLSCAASGFTLNSYGISWVRQAPGKGPEWVSDIYHDGRRTFYGDSVKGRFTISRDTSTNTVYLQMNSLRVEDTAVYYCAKGRAAGTQDSWGQGTLVTVSS,no signal,0/3,0/9
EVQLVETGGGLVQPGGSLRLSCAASGFTLNTYGISWVRQAPGKGPEWVSVIYPDGRRTLYGDSVKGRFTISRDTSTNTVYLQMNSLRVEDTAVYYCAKGRAAGTFDSWGQGTLVTVSS,no signal,0/3,0/9

From the list, the first 4 with no signal in any replicate:

| VH | apparent Kd | replicates with signal | control signals |
|---|---|---|---|
| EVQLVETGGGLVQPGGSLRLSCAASGFTLNSYGISWVRQAPGKGPEWVSVIYGDGRRTFYGDSWKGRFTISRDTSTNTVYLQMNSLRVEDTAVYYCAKGRAAPTFDSWGQGTLVTVSS | no signal | 0/3 | 1/9 |
| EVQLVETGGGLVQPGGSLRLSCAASGFTLNSYGISWVRQAPGKGPEWVSVIYWDGRPTFYGCSVKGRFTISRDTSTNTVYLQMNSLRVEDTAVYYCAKGRAAGTFDSWGQGTLVTVSS | no signal | 0/3 | 0/9 |
| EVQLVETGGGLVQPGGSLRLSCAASGFTLNSYGISWVRQAPGKGPEWVSVIYYDGRRTFYGDSVLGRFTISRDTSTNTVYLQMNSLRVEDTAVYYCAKGRAAGTFDSWGQGTLVTVSS | no signal | 0/3 | 3/9 |
| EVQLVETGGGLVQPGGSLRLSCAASGFTLNSYGISWVRQAPGKGPEWVSVIYEDGRRTFYGDWVKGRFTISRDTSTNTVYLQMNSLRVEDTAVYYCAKYRAAGTFDSWGQGTLVTVSS | no signal | 0/3 | 0/9 |